Earlier results on one substance are cited in patent EP0408284B1, “Amylin for treatment of bone disorders” (AMYLIN PHARMACEUTICALS, INC., priority 1989, dated 1996).

Like-named read-outs stand apart in the source and are kept apart here.

For this data set the following is noted: cited from earlier work.

For the substance “human calcitonin gene-related peptide-α (ACDTATCVTHRLAGLLSRSGGVVKNNFVPTNVGSKAF; Calcitonin gene-related peptide 1 C-terminal amide; UniProt P06881 83-119, looked up) [CGRP, neurotransmitter, alternative splice product of the α-calcitonin gene]”, the “effect on plasma calcium” value by setting is: (rabbit and chick, higher doses) “parathyroid hormone-like hypercalcemic effect”; (rabbits, lower doses) “hypocalcaemic”.
